Molecular target: Recombinant human cathepsin S (CatS) (Homo sapiens, UniProt P25774)
Assay: biochemical

The chains behind the UniProt entries cited, without tags or fusion partners. Residues count along the entry.
UniProt P25774, 115-331: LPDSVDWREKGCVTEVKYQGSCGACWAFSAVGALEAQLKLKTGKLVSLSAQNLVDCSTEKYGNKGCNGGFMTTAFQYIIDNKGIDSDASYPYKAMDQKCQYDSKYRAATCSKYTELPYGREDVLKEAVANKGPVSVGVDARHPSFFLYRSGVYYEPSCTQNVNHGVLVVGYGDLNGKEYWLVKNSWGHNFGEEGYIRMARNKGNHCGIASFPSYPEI

| Compound | IC50 |
| --- | --- |
| COc1ccccc1C1CCN(CC(O)Cn2nc(-c3ccc(C(F)(F)F)c(SCC(=O)N4CCOCC4)c3)c3c2CCN(C(C)=O)C3)CC1 (stereo not shown) [Example 277, 1-(5-Acetyl-3-{3-[(2-morpholin-4-yl-2-oxoethyl)sulfanyl]-4-(trifluoromethyl)phenyl}-4,5,6,7-tetrahydro-1H-pyrazolo[4,3-c]pyridin-1-yl)-3-{4-[2-(methyloxy)phenyl]piperidin-1-yl}propan-2-ol] | 20 nM |
| CS(=O)(=O)N1CCc2c(c(-c3ccc(C(F)(F)F)c(SCC(=O)N4CCOCC4)c3)nn2CC(O)CN2CCN(c3ncccc3Cl)CC2)C1 (stereo not shown) [Example 848, 1-[4-(3-Chloropyridin-2-yl)piperazin-1-yl]-3-[5-(methylsulfonyl)-3-{3-[(2-morpholin-4-yl-2-oxoethyl)sulfanyl]-4-(trifluoromethyl)phenyl}-4,5,6,7-tetrahydro-1H-pyrazolo[4,3-c]pyridin-1-yl]propan-2-ol] | 10 nM |
| N#Cc1ccccc1N1CCN(C[C@H](O)Cn2nc(-c3ccc(C(F)(F)F)c(SCCN4CCC(F)CC4)c3)c3c2CCNC3)CC1 [Example 538, 2-{4-[(2S)-3-{3-[3-{[2-(4-Fluoropiperidin-1-yl)ethyl]sulfanyl}-4-(trifluoromethyl)phenyl]-4,5,6,7-tetrahydro-1H-pyrazolo[4,3-c]pyridin-1-yl}-2-hydroxypropyl]piperazin-1-yl}benzonitrile] | 220 nM |
| CS(=O)(=O)N1CCc2c(c(-c3ccc(C(F)(F)F)c(SCCNC4CCCCC4)c3)nn2CCCN2CCC(N3CCCC3=O)CC2)C1 [Example 674, 1-[1-(3-{3-[3-{[2-(Cyclohexylamino)ethyl]sulfanyl}-4-(trifluoromethyl)phenyl]-5-(methylsulfonyl)-4,5,6,7-tetrahydro-1H-pyrazolo[4,3-c]pyridin-1-yl}propyl)piperidin-4-yl]pyrrolidin-2-one] | 180 nM |
| CS(=O)(=O)N1CCc2c(c(-c3ccc(C(F)(F)F)c(SCC(=O)N4CCCCC4)c3)nn2CC(O)CN2CCC(C(=O)N3CCCC3)CC2)C1 (stereo not shown) [Example 259, 1-[5-(Methylsulfonyl)-3-{3-[(2-oxo-2-piperidin-1-ylethyl)sulfanyl]-4-(trifluoromethyl)phenyl}-4,5,6,7-tetrahydro-1H-pyrazolo[4,3-c]pyridin-1-yl]-3-[4-(pyrrolidin-1-ylcarbonyl)piperidin-1-yl]propan-2-ol] | 60 nM |
| O=C(CSc1cc(-c2nn(CC(O)CN3CCC(F)CC3)c3c2CNCC3)ccc1C(F)(F)F)N1CCCC1 (stereo not shown) [Example 296, 1-(4-Fluoropiperidin-1-yl)-3-(3-{3-[(2-oxo-2-pyrrolidin-1-ylethyl)sulfanyl]-4-(trifluoromethyl)phenyl}-4,5,6,7-tetrahydro-1H-pyrazolo[4,3-c]pyridin-1-yl)propan-2-ol] | 4130 nM |
| OC(CN1CCCCC1)Cn1nc(-c2ccc(C(F)(F)F)c(SCCN3CCOCC3)c2)c2c1CCNC2 (stereo not shown) [Example 291, 1-(3-{3-[(2-Morpholin-4-ylethyl)sulfanyl]-4-(trifluoromethyl)phenyl}-4,5,6,7-tetrahydro-1H-pyrazolo[4,3-c]pyridin-1-yl)-3-piperidin-1-ylpropan-2-ol] | > 20000 nM |
| O=C(CO)N1CCc2c(c(-c3ccc(C(F)(F)F)c(SCCN4CCCC(O)C4)c3)nn2CC(O)CN2CCC(N3CCCC3=O)CC2)C1 (stereo not shown) [Example 671, 1-[1-(2-Hydroxy-3-{5-(hydroxyacetyl)-3-[3-{[2-(3-hydroxypiperidin-1-yl)ethyl]sulfanyl}-4-(trifluoromethyl)phenyl]-4,5,6,7-tetrahydro-1H-pyrazolo[4,3-c]pyridin-1-yl}propyl)piperidin-4-yl]pyrrolidin-2-one] | 120 nM |
| O=C(N1CCOCC1)N1CCc2c(c(-c3ccc(C(F)(F)F)c(SCCN4CCC(F)CC4)c3)nn2C[C@@H](O)CN2CCCCC2)C1 [Example 587, (2S)-1-{3-[3-{[2-(4-Fluoropiperidin-1-yl)ethyl]sulfanyl}-4-(trifluoromethyl)phenyl]-5-(morpholin-4-ylcarbonyl)-4,5,6,7-tetrahydro-1H-pyrazolo[4,3-c]pyridin-1-yl}-3-piperidin-1-ylpropan-2-ol] | 640 nM |
| O=C(CSc1cc(-c2nn(CC(O)CN3CCC(N4CCCC4=O)CC3)c3c2CNCC3)ccc1C(F)(F)F)N1CCCC1 (stereo not shown) [Example 270, 1-{1-[2-Hydroxy-3-(3-{3-[(2-oxo-2-pyrrolidin-1-ylethyl)sulfanyl]-4-(trifluoromethyl)phenyl}-4,5,6,7-tetrahydro-1H-pyrazolo[4,3-c]pyridin-1-yl)propyl]piperidin-4-yl}pyrrolidin-2-one] | 390 nM |

More lines, now with the values ahead:

| IC50 | Compound |
| --- | --- |
| 170 nM | CS(=O)(=O)N1CCc2c(c(-c3ccc(C(F)(F)F)c(SCCN4CCOCC4)c3)nn2CC(O)CN2CCC(n3cn[nH]c3=O)CC2)C1 (stereo not shown) [Example 684, 4-(1-{2-Hydroxy-3-[5-(methylsulfonyl)-3-{3-[(2-morpholin-4-ylethyl)sulfanyl]-4-(trifluoromethyl)phenyl}-4,5,6,7-tetrahydro-1H-pyrazolo[4,3-c]pyridin-1-yl]propyl}piperidin-4-yl)-2,4-dihydro-3H-1,2,4-triazol-3-one] |
| 92 nM | CC1CCN(CCSc2cc(-c3nn(C[C@@H](O)CN4CCC(C(C)(C)O)CC4)c4c3CN(S(C)(=O)=O)CC4)ccc2C(F)(F)F)CC1 [Example 649, (2S)-1-[4-(1-Hydroxy-1-methylethyl)piperidin-1-yl]-3-{3-[3-{[2-(4-methylpiperidin-1-yl)ethyl]sulfanyl}-4-(trifluoromethyl)phenyl]-5-(methylsulfonyl)-4,5,6,7-tetrahydro-1H-pyrazolo[4,3-c]pyridin-1-yl}propan-2-ol] |
| 220 nM | CS(=O)(=O)N1CCc2c(c(-c3ccc(C(F)(F)F)c(SCCN4CCCC(F)C4)c3)nn2C[C@@H](O)CN2CCC(F)CC2)C1 (stereo partly drawn) [Example 504, (2S)-1-(4-Fluoropiperidin-1-yl)-3-{3-[3-{[2-(3-fluoropiperidin-1-yl)ethyl]sulfanyl}-4-(trifluoromethyl)phenyl]-5-(methylsulfonyl)-4,5,6,7-tetrahydro-1H-pyrazolo[4,3-c]pyridin-1-yl}propan-2-ol] |
| 210 nM | CC(C)(O)C1CCN(CC(O)Cn2nc(-c3ccc(C(F)(F)F)c(SCCN4CCCC4)c3)c3c2CCN(S(C)(=O)=O)C3)CC1 (stereo not shown) [Example 548, 1-[4-(1-Hydroxy-1-methylethyl)piperidin-1-yl]-3-[5-(methylsulfonyl)-3-{3-[(2-pyrrolidin-1-ylethyl)sulfanyl]-4-(trifluoromethyl)phenyl}-4,5,6,7-tetrahydro-1H-pyrazolo[4,3-c]pyridin-1-yl]propan-2-ol] |
| 640 nM | CS(=O)(=O)N1CCc2c(c(-c3ccc(C(F)(F)F)c(SCCN4CCC(F)CC4)c3)nn2C[C@@H](O)CN2CCCCC2CO)C1 (stereo partly drawn) [Example 570, (2S)-1-{3-[3-{[2-(4-Fluoropiperidin-1-yl)ethyl]sulfanyl}-4-(trifluoromethyl)phenyl]-5-(methylsulfonyl)-4,5,6,7-tetrahydro-1H-pyrazolo[4,3-c]pyridin-1-yl}-3-[2-(hydroxymethyl)piperidin-1-yl]propan-2-ol] |
| 130 nM | CS(=O)(=O)N1CCc2c(c(-c3ccc(C(F)(F)F)c(SCCN4CCC(O)CC4)c3)nn2CC(O)CN2CCC(NC(=O)CO)CC2)C1 (stereo not shown) [Example 699, 2-Hydroxy-N-[1-(2-hydroxy-3-{3-[3-{[2-(4-hydroxypiperidin-1-yl)ethyl]sulfanyl}-4-(trifluoromethyl)phenyl]-5-(methylsulfonyl)-4,5,6,7-tetrahydro-1H-pyrazolo[4,3-c]pyridin-1-yl}propyl)piperidin-4-yl]acetamide] |
| 140 nM | CC1CCN(CCSc2cc(-c3nn(C[C@@H](O)CN4CCCCC4)c4c3CN(C(=O)C(N)=O)CC4)ccc2C(F)(F)F)CC1 [Example 359, 2-{1-[(2S)-2-Hydroxy-3-piperidin-1-ylpropyl]-3-[3-{[2-(4-methylpiperidin-1-yl)ethyl]sulfanyl}-4-(trifluoromethyl)phenyl]-1,4,6,7-tetrahydro-5H-pyrazolo[4,3-c]pyridin-5-yl}-2-oxoacetamide] |
| 1060 nM | CS(=O)(=O)N1CCc2c(c(-c3ccc(C(F)(F)F)c(SCCN4CCC[C@H](O)C4)c3)nn2C[C@@H](O)CN2CCOCC2)C1 [Example 287, (3S)-1-(2-{[5-{1-[(2S)-2-Hydroxy-3-morpholin-4-ylpropyl]-5-(methylsulfonyl)-4,5,6,7-tetrahydro-1H-pyrazolo[4,3-c]pyridin-3-yl}-2-(trifluoromethyl)phenyl]sulfanyl}ethyl)piperidin-3-ol] |
| 30 nM | CS(=O)(=O)N1CCc2c(c(-c3ccc(C(F)(F)F)c(SCCN4CCC(F)CC4)c3)nn2CC(O)CN2CCC(c3ccncc3)CC2)C1 (stereo not shown) [Example 726, 1-{3-[3-{[2-(4-Fluoropiperidin-1-yl)ethyl]sulfanyl}-4-(trifluoromethyl)phenyl]-5-(methylsulfonyl)-4,5,6,7-tetrahydro-1H-pyrazolo[4,3-c]pyridin-1-yl}-3-(4-pyridin-4-ylpiperidin-1-yl)propan-2-ol] |
| 610 nM | CS(=O)(=O)N1CCc2c(c(-c3ccc(C(F)(F)F)c(SCCN4CCOCC4)c3)nn2CC(O)CN2CCN(C3CC3)CC2)C1 (stereo not shown) [Example 542, 1-(4-Cyclopropylpiperazin-1-yl)-3-[5-(methylsulfonyl)-3-{3-[(2-morpholin-4-ylethyl)sulfanyl]-4-(trifluoromethyl)phenyl}-4,5,6,7-tetrahydro-1H-pyrazolo[4,3-c]pyridin-1-yl]propan-2-ol] |
| 400 nM | CS(=O)(=O)N1CCc2c(c(-c3ccc(C(F)(F)F)c(SCCN4CCOCC4)c3)nn2CC(O)CN2CCCCC2)C1 (stereo not shown) [Example 174, 1-[5-(Methylsulfonyl)-3-{3-[(2-morpholin-4-ylethyl)sulfanyl]-4-(trifluoromethyl)phenyl}-4,5,6,7-tetrahydro-1H-pyrazolo[4,3-c]pyridin-1-yl]-3-piperidin-1-ylpropan-2-ol] |
| 550 nM | CS(=O)(=O)N1CCc2c(c(-c3ccc(C(F)(F)F)c(SCCN4CCC(F)CC4)c3)nn2CC(O)CN2CCC(N)CC2)C1 (stereo not shown) [Example 476, 1-(4-Aminopiperidin-1-yl)-3-{3-[3-{[2-(4-fluoropiperidin-1-yl)ethyl]sulfanyl}-4-(trifluoromethyl)phenyl]-5-(methylsulfonyl)-4,5,6,7-tetrahydro-1H-pyrazolo[4,3-c]pyridin-1-yl}propan-2-ol] |

From patent publication US20090099157A1, “TETRAHYDRO-PYRAZOLO-PYRIDINE THIOETHER MODULATORS OF CATHEPSIN S” (priority 2007, published 2009)
